{"source": "paper PMC8949375", "about": "“Design, Green Synthesis and Tailoring of Vitamin E TPGS Augmented Niosomal Nano-Carrier of Pyrazolopyrimidines as Potential Anti-Liver and Breast Cancer Agents with Accentuated Oral Bioavailability” (Pharmaceuticals, 2022)", "key": {"[1]": {"system": "VEGF protein expression level in HepG2 cell line", "assay": "VEGF ELISA in HepG2 cell culture supernatant", "type": "cell-based, human", "set-up": "concentration or dose not given beside the values", "conditions": "compared to control", "procedure": "Total protein was assayed using the method described by Bradford. The VEGF ELISA Assay Kit (VEGF) and ELISA Kit, (#VGF31-[…]) were purchased from (Eagle Biosciences CO., LTD, Amherst, NH, USA). The kit is a sandwich enzyme immunoassay for the in vitro quantitative determination of VEGF concentrations in cell culture supernates, serum and plasma according to the manufacturer's instructions."}, "[2]": {"system": "VEGFR-2 protein expression level in HepG2 cell line", "assay": "Human VEGF receptor-2 ELISA in HepG2", "type": "cell-based", "set-up": "concentration or dose not given beside the values", "conditions": "compared to control", "procedure": "Total protein was assayed using the method described by Bradford. The Human VEGF receptor-2 ELISA Kit (ab213476), (96 tests) was purchased from (abcam®, Waltham, MA, USA). The kit is a sandwich enzyme immunoassay for the in vitro quantitative measurement of human VEGFR-2 in tissue homogenates, cell lysates and other biological fluids according to the manufacturer’s instructions."}}}
{"smiles": "CNC(=O)c1cc(Oc2ccc(NC(=O)Nc3ccc(Cl)c(C(F)(F)F)c3)cc2)ccn1", "note": "[Sorafenib, reference compound]", "values": [{"measurement": "VEGF 24 h % Inhibition", "setting": "[1]; 24 h", "value": 67.7, "unit": "%"}, {"measurement": "VEGF 72 h % Inhibition", "setting": "[1]; 72 h", "value": 73.8, "unit": "%"}, {"measurement": "VEGFR-2 24 h % Inhibition", "setting": "[2]; 24 h", "value": 69, "unit": "%"}, {"measurement": "VEGFR-2 72 h % Inhibition", "setting": "[2]; 72 h", "value": 70.4, "unit": "%"}]}
